Bioassay records (PubChem)
This is a sample that favours compounds with a hit; in the whole collection about 2.2% have one here.
GALK inh: galactokinase (human) inhibition; P51570; Purified GALK, Kinase-Glo residual ATP luminescence; Potency, µM (highest dose often 57.5 µM), without a hit: at the highest dose activity change, negative = inhibition, most hits filed as inhibitors; 0.007% of 270,000 active; AID 1868; also: potency is read from the fitted curve at half-maximal effect; % is scaled to controls: 0 for no effect and ±100 for the full control effect
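Quantitative HTS: GALK 5 nM, ATP 35 uM, galactose 100 uM, 1 h room temperature, then luciferase-based ATP detection.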
Nrf2 inh: blocks Nrf2 signaling. AID 504444. 2.1% of 360,000 active. A549 ARE-Fluc reporter, luciferase luminescence, 18-24 h. Potency, µM (top dose mostly 46 µM), without a hit: at the highest dose activity change, negative = inhibition, usual class: inhibitors; also: potency is read from the fitted curve at half-maximal effect; % is scaled to controls: 0 for no effect and ±100 for the full control effect; nearly all actives have a fitted effect of over 60% in size
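Nrf2 activity is the BugLite luminescence, read 15 min after reagent at room temperature, following CellTiter-Fluor cytotoxicity readout (30 min, 37C). Compound titrations were applied for 18-24 h to 5000 A549 ARE_Fluc cells/well in 5% FBS OPTI-MEM.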
Nrf2 activator: activates Nrf2 signaling. AREc32 ARE-luciferase reporter (MCF7-derived line), luminescence, 24 h. Potency, µM (doses to about 46.1 µM), for the others: at the highest dose activation, actives largely listed as activators. 0.31% of 410,000 active. AID 624171; also: potency is read from the fitted curve at half-maximal effect; % of control where 0% means no effect; nearly all actives have a fitted effect of over 65% in size
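Luciferase luminescence (Steady-Glo, 30 min at room temperature) served as the read-out of ARE activation in AREc32 cells treated with compounds for 24 hr at 37 deg C.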
PI4K2A inh: PI4K2A (human) kinase inhibition; purified PI4K2A, ADP-Glo luminescence, 1 h; hits give low values; activity change, negative = inhibition, % at 76.9 µM; 0.13% of 420,000 active; in the data active = activity change below about -50%; inconclusive = mostly about -30% to -49%;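 also: -100% = wells without enzyme as full effect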
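In this quantitative HTS, ADP production by PI4K2A was quantified luminescently after 1 h at ambient temperature; 100 microM adenosine served as plate-quality control.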
A549 tox: A549 cytotoxicity, counter-screen for Nrf2 inhibitors. A549 ARE-Fluc cells, CellTiter-Fluor viability, 18-24 h. Potency, µM (highest dose often 46 µM), for inactives: at the highest dose activity change, negative = cytotoxicity, actives largely listed as inhibitors. 0.16% of 390,000 active; also: potency is read from the fitted curve at half-maximal effect; % is scaled to controls: 0 for no effect and ±100 for the full control effect
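Cytotoxicity counterscreen: CellTiter-Fluor fluorescence was measured in A549 ARE_Fluc cells after 18-24 h of compound exposure in a concentration series. The subsequent BugLite luminescent read reports ARE-luciferase activity.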
miR-21 FLuc: raises the signal of a miR-21 reporter; HeLa miR-21 FLuc reporter, luciferase, 48 h; Potency, µM (top dose mostly 38.3 µM), for inactives: at the highest dose reporter change, positive = more light; AID 2288; 340,000 tested, under 10 active; active = well fitted rising curve with a large enough effect; inconclusive = small, poorly fitted or top-dose-only effect; inactive = no such curve, though single readings can be large or run the other way;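 note: % of control where 0% means no effect; miR-21 action dims this reporter so a rising signal means less miR-21 action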
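HeLa cells endogenously expressing miR-21, stably carrying CMV-driven firefly luciferase with a downstream miR-21 binding site, 2000 cells/well. Titrations up to approximately 40 uM, 48 hours; luciferase luminescence read.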
The depositor's hits bear a star; u = inconclusive; x = no result. Unless noted, calls follow the shape of the dose curve; as a rule, active = well fitted curve in the direction sought with a large enough effect; inconclusive = small, poorly fitted or top-dose-only effect, or another doubt; inactive = no such curve, though single readings can be large; an effect the other way counts as inactive or inconclusive.

The line under a structure holds: Nrf2 activator	GALK inh	Nrf2 inh	A549 tox	miR-21 FLuc	PI4K2A inh
- O=C(CSc1nc(-c2ccc(F)cc2)[nH]c1-c1ccc(F)cc1)Nc1ccc2c(c1)OCO2
 : 3.6%	x	16.4µM*	u	u	-3.0
- COCCCNC(=O)CSc1nc(-c2cccc(F)c2)[nH]c1-c1ccccc1
 : 0.1%	x	14.6µM*	-23.8%	18.4%	0.4
- COc1ccc(-c2nc(SCC(=O)NC3CCCC3)c(-c3ccc(F)cc3)[nH]2)cc1
 : 5.2%	x	16.4µM*	-21.4%	28.4%	2.2
- COP(=O)(O)C(Cc1ccccc1)NC(=O)OCc1ccccc1 (stereo not drawn)
 : x	x	x	x	x	-7.4
- COc1ccc(-n2c(SCC(=O)N/N=C(/C)c3cccc(O)c3)nc3ccccc3c2=O)cc1
 : x	x	x	x	x	-8.5
- COc1ccc(C2=Nn3c(nnc3-c3cccc(OC)c3OC)SC2)c(OC)c1
 : x	x	-11.9%	-3.3%	x	x
- COC(=O)C1=C(C(=O)OC)[C@@H]2N(Cc3ccccc3)c3ccccc3[C@@]23C[C@@H](C(=O)OC)N(C(=O)c2cccs2)C3=N1
 : 2.3%	-2.1%	29.1µM*	u	u	-2.9
- COC(=O)C1=C(C(=O)OC)[C@@H]2N(Cc3ccccc3)c3ccccc3[C@@]23C[C@@H](C(=O)OC)N(C(=O)c2cc(C)oc2C)C3=N1
 : -1.6%	x	23.1µM*	-15.7%	x	4.6
- O=S(=O)(c1ccc(C(F)(F)F)cc1)N1CCN(S(=O)(=O)c2ccc3c(c2)OCCO3)CC1
 : x	x	-14.7%	-2.6%	x	x
- O=C(Nc1ccc(Br)cc1)OC1CC2CC1[C@H]1CCCCN1[C@H]2Cc1ccccc1 (stereo partly drawn)
 : x	x	x	x	x	2.4
- CC(C)(C)C1CCc2c(sc(NC(=O)CSc3ncn[nH]3)c2C#N)C1 (stereo not drawn)
 : -1.3%	-1.5%	u	u	2.3%	-7.8
- CC1CCc2c(sc(NC(=O)CSc3ncn[nH]3)c2C#N)C1 (stereo not drawn)
 : -3.0%	3.2%	7.31µM*	-10.0%	u	-1.7
- N#Cc1c(NC(=O)CSc2ncn[nH]2)sc2c1CCCC2
 : -1.7%	-0.1%	4.11µM*	-6.4%	u	-4.4
- O=S1(=O)C=C(N2CCCCC2)c2ccccc21
 : 12.6µM*	4.3%	0.8%	-4.0%	-4.2%	8.6
- COC(=O)C1=C(C)N(Cc2ccccc2)C(=S)N[C@H]1c1cccc(C(F)(F)F)c1
 : 0.9%	x	18.4µM*	-21.0%	3.2%	1.5
- COc1ccccc1NC(=O)C1=C(C)N(c2ccccc2)C(=S)NC1c1cccc(C(F)(F)F)c1 (stereo not drawn)
 : -0.1%	-0.3%	14.6µM*	-7.2%	20.8%	-1.6
- COC(=O)c1ccc(C2NC(=S)N(c3ccccc3)C(C)=C2C(=O)Nc2ccccc2OC)cc1 (stereo not drawn)
 : 0.5%	-1.6%	u	x	-0.7%	-0.9
- CNc1oc(-c2ccccc2F)nc1S(=O)(=O)c1ccc(C)cc1
 : 2.9%	-0.9%	25.9µM*	-11.0%	4.9%	4.2
- C=CCN1C(c2cccc(C(F)(F)F)c2)=CS/C1=C(\C#N)c1nnc(N2CCOCC2)n1-c1ccccc1
 : -0.1%	x	x	x	x	-10.8
- C=CCN1C(c2ccc(Br)cc2)=CS/C1=C(\C#N)c1nnc(N2CCOCC2)n1-c1ccccc1
 : 2.7%	x	25.9µM*	u	x	-12.1
- COC(=O)C(NNc1ccc(F)cc1)(NC(=O)c1ccccc1)C(F)(F)F (stereo not drawn)
 : 0.7%	0.0%	23.1µM*	-2.7%	-4.0%	-6.3
- O=[N+]([O-])c1c(Nc2ccccn2)cc(Cl)c2nonc12
 : -3.2%	x	u	18.4µM*	26.5%	u
- CCC1(OC(=O)CN(C)C)C(=O)OCc2c1cc1n(c2=O)Cc2cc3c(N)cccc3nc2-1 (stereo not drawn)
 : -1.3%	x	0.651µM*	u	x	-61.8*
- CC[C@@]1(O)C(=O)OCc2c1cc1n(c2=O)Cc2c-1nc1ccccc1c2/C=N/OC(C)(C)C
 : x	x	x	x	x	4.0
- CCOC(=O)C1C[C@@H](O)C=CC1=O (stereo partly drawn)
 : x	x	x	x	x	-2.3

Profiles, quoted from the list:
CC[C@@]1(O)C(=O)OCc2c1cc1n(c2=O)Cc2c-1nc1ccccc1c2/C=N/OC(C)(C)C in the list: Nrf2 activator: x; GALK inh: x; Nrf2 inh: x; A549 tox: x; miR-21 FLuc: x; PI4K2A inh: 4.0
O=[N+]([O-])c1c(Nc2ccccn2)cc(Cl)c2nonc12 in the list: Nrf2 activator: -3.2%; GALK inh: x; Nrf2 inh: u; A549 tox: 18.4µM*; miR-21 FLuc: 26.5%; PI4K2A inh: u
